Measured values as given in ChEMBL document CHEMBL1129332, “2-Phenyl-4-quinolinecarboxamides: a novel class of potent and selective non-peptide competitive antagonists for the human neurokinin-3 receptor” (J Med Chem, 1996).

By UniProt entry, the sequences of proteins in these tests, tags left out.
UniProt P30098, whole entry: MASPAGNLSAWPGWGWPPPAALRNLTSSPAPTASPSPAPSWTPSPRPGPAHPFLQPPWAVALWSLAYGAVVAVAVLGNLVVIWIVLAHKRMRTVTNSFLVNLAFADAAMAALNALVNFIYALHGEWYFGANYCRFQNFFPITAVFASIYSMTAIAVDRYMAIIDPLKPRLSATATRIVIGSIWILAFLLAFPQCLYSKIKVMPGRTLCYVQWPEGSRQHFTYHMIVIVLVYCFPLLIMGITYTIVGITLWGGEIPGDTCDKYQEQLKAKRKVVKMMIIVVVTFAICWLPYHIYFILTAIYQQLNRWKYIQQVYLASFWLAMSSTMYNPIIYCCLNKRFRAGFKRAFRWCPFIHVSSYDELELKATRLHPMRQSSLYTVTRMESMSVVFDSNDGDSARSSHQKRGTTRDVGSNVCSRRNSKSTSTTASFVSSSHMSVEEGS

Target: Neuromedin-K receptor (Cavia porcellus, UniProt P30098)
Test: Ability to displace [3H]senktide succinyl-[Asp9MePhe8]-SP (6-13)} from Tachykinin receptor 3 of guinea pig cerebral cortex membrane
Type: tissue-based

Q: How did the IC50 turn out when `CC(=O)N(C)C1(c2ccccc2)CCN(CCC[C@]2(c3ccc(Cl)c(Cl)c3)CCCN(C(=O)c3ccccc3)C2)CC1` [OSANETANT] was run?
A: Its IC50 is 320 nM.
